{"source": "patent US20070276025A1", "about": "“Indirubin-Type Compounds, Compositions, and Methods for Their Use” (priority 2003, published 2007)", "assay": "Solubility (qualitative remark)", "settings": "relative to parent indirubins / 3′-oximes", "data": [{"substance": "6′-Bromo-indirubin-3′-oxime [13a]", "values": [{"measurement": "solubility (in words)", "value": "increased solubility"}]}]}
